Measurements taken from PubChem BioAssay (NCI).
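Protocol summary: plate cells (96-well), add compound at 5 concentrations, incubate 48 h, interpolate endpoints linearly. At the GI50, growth is halved. TGI marks complete inhibition of growth.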

What was measured:
Experiment in all cases: inhibition of tumour cell growth, NCI panel, 48 h
[1] = test system: SF-539 CNS
[2] = test system: M14 melanoma
[3] = test system: BT-549 breast
[4] = test system: DU-145 prostate
[5] = test system: NCI-H23 lung
[6] = test system: RPMI-8226 leukemia
[7] = test system: HT29 colon
[8] = test system: 786-0 renal
[9] = test system: MCF7 breast
[10] = test system: SK-MEL-2 melanoma
[11] = test system: PC-3 prostate
[12] = test system: MDA-MB-231 breast
[13] = test system: OVCAR-8 ovarian
[14] = test system: OVCAR-3 ovarian
[15] = test system: CAKI-1 renal
[16] = test system: SNB-19 CNS
[17] = test system: RXF 393 renal
[18] = test system: NCI-H226 lung
[19] = test system: SNB-75 CNS
[20] = test system: UO-31 renal
[21] = test system: U251 CNS
[22] = test system: KM12 colon
[23] = test system: NCI/ADR-RES ovarian
[24] = test system: SF-268 CNS
[25] = test system: MALME-3M melanoma
[26] = test system: IGROV1 ovarian
[27] = test system: TK-10 renal

O=[As]c1ccc(S(=O)(=O)NCCO)cc1 (centres undefined)
GI50 [1]: > 100 µM | TGI [1]: > 100 µM | GI50 [2]: > 100 µM | TGI [2]: > 100 µM | GI50 [3]: > 100 µM | TGI [3]: > 100 µM | GI50 [4]: > 100 µM | TGI [4]: > 100 µM | GI50 [5]: > 100 µM | TGI [5]: > 100 µM | GI50 [6]: > 100 µM | TGI [6]: > 100 µM | GI50 [7]: > 100 µM | TGI [7]: > 100 µM | GI50 [8]: > 100 µM | TGI [8]: > 100 µM | GI50 [9]: > 100 µM | TGI [9]: > 100 µM | GI50 [10]: > 100 µM | TGI [10]: > 100 µM | GI50 [11]: > 100 µM | TGI [11]: > 100 µM | GI50 [12]: > 100 µM | TGI [12]: > 100 µM | GI50 [13]: > 100 µM | TGI [13]: > 100 µM | GI50 [14]: > 100 µM | TGI [14]: > 100 µM | GI50 [15]: > 100 µM | TGI [15]: > 100 µM | GI50 [16]: > 100 µM | TGI [16]: > 100 µM | GI50 [17]: > 100 µM | TGI [17]: > 100 µM | GI50 [18]: > 100 µM | TGI [18]: > 100 µM | GI50 [19]: > 100 µM | TGI [19]: > 100 µM | GI50 [20]: > 100 µM | TGI [20]: > 100 µM | GI50 [21]: > 100 µM | TGI [21]: > 100 µM | GI50 [22]: > 100 µM | TGI [22]: > 100 µM | GI50 [23]: > 100 µM | TGI [23]: > 100 µM | GI50 [24]: > 100 µM | TGI [24]: > 100 µM | GI50 [25]: > 100 µM | TGI [25]: > 100 µM | GI50 [26]: > 100 µM | TGI [26]: > 100 µM | GI50 [27]: > 100 µM | TGI [27]: > 100 µM
